# Binding of CDR-mutated scFvs to a peptide of the spike HR2 region

Reference: Engelhart et al. 2022, doi:10.1038/s41597-022-01779-4. File: FLAb, binding data.

Target peptide (SARS-CoV-2 spike, HR2 region): PDVDLGDISGINAS

Each scFv is VH, three GGGGS repeats, VL, as in the parent Ab-14, and differs from it in the CDRs of the light chain only.
VH: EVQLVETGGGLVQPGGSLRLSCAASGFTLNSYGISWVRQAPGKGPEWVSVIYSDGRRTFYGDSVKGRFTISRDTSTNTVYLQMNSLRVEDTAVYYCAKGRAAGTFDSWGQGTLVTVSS
VL: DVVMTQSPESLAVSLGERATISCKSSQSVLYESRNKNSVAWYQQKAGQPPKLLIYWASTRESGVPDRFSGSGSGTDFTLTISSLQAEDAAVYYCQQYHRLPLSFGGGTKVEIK

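The library (AAYL50) carries one to three amino acid substitutions per variant, with no insertions or deletions. AlphaSeq pools MATa yeast showing the antibodies with MATalpha yeast showing the peptide. Binding brings cells together so that they mate, and sequencing counts the barcode pairs among the diploids. Each replicate has its own calibration line, from reference interactions of the BCL2 family. Each pool was mated in three replicate cultures.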

Sequences are complete VL domains.
Every variant below is changed at R34 of the VL (sequential numbering).
Values are apparent Kd, the geometric mean of the replicates that gave a signal; lower means stronger binding.
"nd" means that the variant was in the library but no mating with the target was seen in any replicate; the authors take this as a sign of poor binding, and no number exists.
Nonspecific signal, from three strains lacking the peptide, appeared in 18% of pairings of library AAYL50, centred on 15 µM (5% of these signals below 970 nM); values are not corrected for it. Also given: how often the same scFv was detected with the empty control strains.

VL,apparent Kd,seen in,signal with controls
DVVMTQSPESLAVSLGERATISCKSSQSVLYQSANKNSVAWYQQKAGQPPKLLIYKASTRESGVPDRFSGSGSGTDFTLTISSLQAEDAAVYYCQQYHRLPLSFGGGTKVEIK,56 nM,3 of 3,2 of 9
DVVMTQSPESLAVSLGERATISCKSSQSVLYESINKNSVAWYQQKAGQPPKLLIYWARTRWSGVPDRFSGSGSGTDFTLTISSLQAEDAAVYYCQQYHRLPLSFGGGTKVEIK,85 nM,3 of 3,0 of 9
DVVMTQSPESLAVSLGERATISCKSSQDVLYESINKNSVAWYQQKAGQPPKLLIYWASWRESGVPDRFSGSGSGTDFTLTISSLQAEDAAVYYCQQYHRLPLSFGGGTKVEIK,21 nM,3 of 3,1 of 9
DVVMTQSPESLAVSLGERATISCKSSQSVLYESPNKNSVAWYQQKAGQPPKLLIYWASTRESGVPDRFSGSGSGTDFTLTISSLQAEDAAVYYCQQHHRLPLVFGGGTKVEIK,2.4 µM,3 of 3,1 of 9
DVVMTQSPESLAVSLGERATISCKSSQSVLYESSNKNSVAWYQQKAGQPPKLLIYWASTRERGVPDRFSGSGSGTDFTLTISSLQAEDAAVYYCQQYHRLPHSFGGGTKVEIK,nd,0 of 3,0 of 9
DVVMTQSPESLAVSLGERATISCKSSQSVLYESGNKNSVAWYQQKAGQPPKLLIYEASTREFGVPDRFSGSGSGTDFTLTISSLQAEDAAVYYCQQYHRLPLSFGGGTKVEIK,8.4 nM,3 of 3,3 of 9
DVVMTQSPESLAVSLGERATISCKSSQSVLYESMNKISVAWYQQKAGQPPKLLIYWASTRESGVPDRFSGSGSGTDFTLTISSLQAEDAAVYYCQQYHRLPLSFGGGTKVEIK,nd,0 of 3,0 of 9
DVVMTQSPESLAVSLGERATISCKSSQSVLYESFNKNSVAWYQQKAGQPPKLLIYWASTRESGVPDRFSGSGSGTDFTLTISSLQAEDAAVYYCQEYHRLPLSFGGGTKVEIK,nd,0 of 3,0 of 9
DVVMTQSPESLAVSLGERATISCKSSQSQLYESLNKNSHAWYQQKAGQPPKLLIYWASTRESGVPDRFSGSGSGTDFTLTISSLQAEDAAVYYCQQYHRLPLSFGGGTKVEIK,nd,0 of 3,4 of 9
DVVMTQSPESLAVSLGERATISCKSSQKVLYESFNKNSVAWYQQKAGQPPKLLIYNASTRESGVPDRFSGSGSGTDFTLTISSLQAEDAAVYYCQQYHRLPLSFGGGTKVEIK,530 pM,3 of 3,2 of 9
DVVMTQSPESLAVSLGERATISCKSSQSVLYESINKNSVAWYQQKAGQPPKLLIYWASTRESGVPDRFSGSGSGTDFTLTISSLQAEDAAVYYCQQYHILPSSFGGGTKVEIK,190 µM,3 of 3,7 of 9
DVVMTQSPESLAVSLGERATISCKRSQSVLYESMNKNSVAWYQQKAGQPPKLLIYWASTRESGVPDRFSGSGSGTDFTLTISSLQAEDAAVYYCQQYHNLPLSFGGGTKVEIK,350 nM,3 of 3,0 of 9
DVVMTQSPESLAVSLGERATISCKSEQSVTYESTNKNSVAWYQQKAGQPPKLLIYWASTRESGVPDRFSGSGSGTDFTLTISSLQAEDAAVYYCQQYHRLPLSFGGGTKVEIK,2.2 nM,3 of 3,4 of 9
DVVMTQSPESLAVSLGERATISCESSQSVLYESANKNSVAWYQQKAGQPPKLLIYWASTRESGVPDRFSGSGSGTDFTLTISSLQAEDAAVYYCQQYHRLPLGFGGGTKVEIK,260 nM,3 of 3,4 of 9
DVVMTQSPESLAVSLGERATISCKSSQSVEYESPNKNSVAWYQQKAGQPPKLLIYWASTRESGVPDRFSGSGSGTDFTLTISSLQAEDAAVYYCQQYHRLPLSFGGGTKVEIK,3.6 nM,3 of 3,1 of 9

A selection of 2 entries from above:

VL,apparent Kd,seen in,signal with controls
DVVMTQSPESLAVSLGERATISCKSSQKVLYESFNKNSVAWYQQKAGQPPKLLIYNASTRESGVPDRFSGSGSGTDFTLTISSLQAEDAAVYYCQQYHRLPLSFGGGTKVEIK,530 pM,3 of 3,2 of 9
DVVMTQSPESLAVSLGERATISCKSSQSVLYESFNKNSVAWYQQKAGQPPKLLIYWASTRESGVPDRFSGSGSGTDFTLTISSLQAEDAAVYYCQEYHRLPLSFGGGTKVEIK,nd,0 of 3,0 of 9